Measurements as given in patent US20210220420A1, “BOTANICAL COMPOSITIONS OF SALVIA O[…] ACTIVITY IN EXTENDING CHR[…] AND METHODS OF USE” (priority 2016, published 2021).

Tested on: C. elegans strain with a pharyngeal GFP tag and a bus-5 mutation
Test: C. elegans chronological lifespan assay versus small molecule AChE inhibitors (Example 4)
Assay type: in vivo
Details: 10 mg/ml
Procedure: The samples were prepared as a DMSO-based 10 mg/ml stock, aliquoted when necessary and a serial dilution of the stock solution was performed for N92-4. The stock solutions were stored at −20° C.
The assay was carried out using the standard C. elegans strain with a pharyngeal GFP tag and a bus-5 mutation. The GFP tag enables images of the worms to be captured using fluorescence microscopy. […] The worms were raised in the presence of a treatment or control on 12 well NGM agar plates, and were maintained at 20° C. with sufficient food (Escherichia coli strain OP-50).
A proprietary data analysis software package was used to analyse the effects of different active ingredients on aspects of worm ageing. The package was developed using a MATLAB image analysis algorithm which was adapted to recognise and count worms based on their fluorescence intensity above background fluorescence. A living worm is distinguished from a dead worm based on the degree of movement between two consecutive images, which enables the number of living and cumulative number of dead worms to be tracked throughout the experiment. […] A selection of images was manually checked to ensure the software had correctly identified the number of worms.
The statistical analysis output of OASIS provides Log-Rank and Fishers Exact Test results. The Log-Rank result is a non-parametric test which compares two survival functions for the overall lifespan assay, providing a reliable p-value summarising the whole experiment. The Fishers Exact Test calculates the significance of survival function comparisons at multiple specific time points throughout the experiment, rather than for the overall lifespan

## COc1cc2c(cc1OC)C(=O)C(CC1CCN(Cc3ccccc3)CC1)C2 (stereo not shown) [N350, Donepezil]
  Restricted mean lifespan: 14.48 days
  maximum improvement in lifespan: +19.6%
At day 13 (N350), day 12 (N355, N314), day 9 (N354)
  maximum improvement in survival: up to +15.8%
Vs control
  improvement in mean life span: +11.3%
